Amino acid sequences for entries named in this document (tags omitted).
UniProt O35678, whole entry: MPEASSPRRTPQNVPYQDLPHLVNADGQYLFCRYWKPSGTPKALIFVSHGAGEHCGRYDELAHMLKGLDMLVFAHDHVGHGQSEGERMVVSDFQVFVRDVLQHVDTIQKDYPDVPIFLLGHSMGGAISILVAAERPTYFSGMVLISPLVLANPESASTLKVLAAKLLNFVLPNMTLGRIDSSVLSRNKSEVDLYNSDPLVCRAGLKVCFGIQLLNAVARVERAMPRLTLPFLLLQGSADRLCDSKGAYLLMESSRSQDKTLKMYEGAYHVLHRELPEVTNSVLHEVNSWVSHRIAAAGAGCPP

In paper PMC2828288 (Journal of medicinal chemistry, 2010):

Target: MAGL (Mus musculus, UniProt O35678)
Experiment: Competitive ABPP
Assay type: biochemical

## O=C(Oc1ccc([N+](=O)[O-])cc1)N1CCC(C(O)(c2ccc3c(c2)OCO3)c2ccc3c(c2)OCO3)CC1 [Compound 1, 4-nitrophenyl 4-(dibenzo[d][1,3]dioxol-5-yl(hydroxy)methyl)piperidine-1-carboxylate]
  improvement in MAGL potency compared with 23: 7 fold
